Assay results: BindingDB's records for 19027295

Amino acid sequences for entries named in this document (tags omitted). Residues count along the entry.
UniProt P32297, 32-505 limits assumed: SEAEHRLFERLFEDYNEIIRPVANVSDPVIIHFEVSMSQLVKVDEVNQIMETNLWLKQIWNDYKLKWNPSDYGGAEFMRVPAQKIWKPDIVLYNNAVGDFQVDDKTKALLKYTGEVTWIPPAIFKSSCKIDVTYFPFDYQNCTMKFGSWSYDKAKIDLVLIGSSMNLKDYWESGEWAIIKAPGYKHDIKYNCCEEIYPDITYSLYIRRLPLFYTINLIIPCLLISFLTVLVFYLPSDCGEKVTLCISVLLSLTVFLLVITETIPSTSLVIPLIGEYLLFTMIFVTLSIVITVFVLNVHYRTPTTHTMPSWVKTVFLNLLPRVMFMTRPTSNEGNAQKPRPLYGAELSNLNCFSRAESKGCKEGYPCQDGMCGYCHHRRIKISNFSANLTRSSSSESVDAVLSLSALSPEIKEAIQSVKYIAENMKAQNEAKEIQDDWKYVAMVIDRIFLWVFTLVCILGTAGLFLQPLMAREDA
UniProt P36544, 23-502 limits assumed: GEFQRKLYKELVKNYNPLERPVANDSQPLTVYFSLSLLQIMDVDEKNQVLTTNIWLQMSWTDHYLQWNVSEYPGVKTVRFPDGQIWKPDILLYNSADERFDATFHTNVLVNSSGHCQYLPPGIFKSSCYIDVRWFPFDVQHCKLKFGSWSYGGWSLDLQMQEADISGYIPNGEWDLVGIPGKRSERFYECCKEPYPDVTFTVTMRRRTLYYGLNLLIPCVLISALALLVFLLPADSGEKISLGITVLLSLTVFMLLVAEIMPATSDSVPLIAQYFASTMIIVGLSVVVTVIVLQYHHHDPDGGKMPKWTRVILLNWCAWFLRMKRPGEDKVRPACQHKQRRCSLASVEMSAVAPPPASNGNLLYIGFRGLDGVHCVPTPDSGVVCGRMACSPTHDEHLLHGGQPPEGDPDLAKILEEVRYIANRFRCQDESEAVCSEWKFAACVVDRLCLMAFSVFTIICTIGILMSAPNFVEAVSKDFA

Legend:
[1] = target: Neuronal acetylcholine receptor subunit alpha-3 (Homo sapiens, UniProt P32297)
[2] = target: Neuronal acetylcholine receptor subunit alpha-7 (Homo sapiens, UniProt P36544)

`CN(C)C(=O)OCCC(C1CC1)N(C)C` (configuration not stated) showed an EC50 [1] of over 1000 µM and a Ki [2] of over 1000 µM.
